Data on three molecules can be found in ChEMBL document CHEMBL1140788, “Development of CXCR3 antagonists. Part 3: Tropenyl and homotropenyl-piperidine urea derivatives” (Bioorg Med Chem Lett, 2008).

The species entered for this series is Homo sapiens. Put plainly: Protein binding to human plasma. Particulars: read-out: PPB (converted).
Regarding `CC(=O)N1C2C=C(CN3C4CCC3CC(NC(=O)Nc3cc(F)cc(C(F)(F)F)c3)C4)CC1CCC2` (stereo not drawn), the fraction unbound is 0.07.

Consider `CC(=O)N1CCC(CN2CCC(NC(=O)Nc3cc(C(F)(F)F)cc(C(F)(F)F)c3)CC2)CC1`, for which the fraction unbound was 0.05.

Regarding `O=C(Nc1cc(C(F)(F)F)cc(C(F)(F)F)c1)NC1CCN(CCC2CCS(=O)(=O)C2)CC1` (stereo not drawn), the fraction unbound was 0.03.
